## scFv variants of Ab-14 (light chain) against a SARS-CoV-2 spike peptide

Binding partner: SARS-CoV-2 spike HR2 peptide, sequence PDVDLGDISGINAS.

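The parent was found by panning a naive human phage display library on the peptide. Library AAYL50 holds single substitutions and randomly drawn double and triple substitutions in the CDRs. AlphaSeq pools MATa yeast showing the antibodies with MATalpha yeast showing the peptide. Mating (16 h, 30 °C) was followed by selection of diploids and sequencing of their barcodes. A regression on co-assayed BCL2-family reference pairs converts the normalised counts of each replicate to an apparent Kd. Mating was done three times.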

Each scFv is VH, a (GGGGS)3 linker, VL, as in the parent Ab-14, and differs from it in the CDRs of the light chain only.
VH: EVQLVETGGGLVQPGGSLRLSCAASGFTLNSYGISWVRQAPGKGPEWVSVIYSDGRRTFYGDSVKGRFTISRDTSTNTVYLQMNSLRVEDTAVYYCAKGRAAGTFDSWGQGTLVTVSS
VL: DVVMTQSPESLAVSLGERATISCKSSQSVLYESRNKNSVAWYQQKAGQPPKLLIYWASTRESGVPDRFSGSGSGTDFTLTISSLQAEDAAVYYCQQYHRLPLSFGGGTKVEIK

Changes read parent residue, position, new residue, counted from the first residue of the VL shown.
Values are log10 of the apparent Kd in nM; lower means stronger binding.
A pair that was not seen in that replicate is written "nd"; this usually means weak binding, but a binder can also be missed.
Nonspecific signal, from three strains lacking the peptide, appeared in 18% of pairings of library AAYL50, centred on 4.19 (5% of these signals below 2.99); values are not corrected for it. The control count says in how many pairings with the empty strains this scFv gave a signal, with their mean in brackets.

| changes | log10 Kd, replicates | empty controls |
|---|---|---|
| W56T+T59W+L102D | nd / nd / nd | 0 of 9 |
| V29C+S33Q+S58I | 4.46 / 3.98 / 4.82 | 2 of 9 (5.18) |
| Y31G+N37S+V39Q | 6.11 / nd / nd | 3 of 9 (3.96) |
| S26E+V29E+R99A | 1.34 / 1.48 / 1.55 | 0 of 9 |
| S26N+A40D+S58G | nd / nd / nd | 0 of 9 |
| S33Q+N37S+A40W | nd / nd / nd | 0 of 9 |
| S28N+S62M+L100Y | nd / nd / nd | 0 of 9 |
| S58G+H98A+L100Y | 0.93 / 1.04 / 1.00 | 1 of 9 (3.91) |
| S38L+V39R | nd / nd / nd | 1 of 9 (2.97) |
| K24S+Y31P+T59L | 0.91 / 1.22 / 0.67 | 0 of 9 |
| V29Y+S38G+R99M | nd / nd / 3.55 | 0 of 9 |
| K36H+Q96N+L100W | 7.03 / nd / 4.85 | 7 of 9 (5.11) |
| S33G+N37M+S103Q | nd / nd / nd | 4 of 9 (4.43) |
| E32Y+V39A | nd / nd / nd | 1 of 9 (2.82) |
| N37M+A40H+T59Y | nd / nd / nd | 0 of 9 |
| S28F+A57D | 2.55 / 2.66 / 3.15 | 2 of 9 (4.26) |
| K24D+W56S+S62D | -0.04 / 0.32 / 0.11 | 3 of 9 (4.50) |
| K24S+R60D+H98R | nd / nd / 3.27 | 2 of 9 (3.64) |
| A40Q+S62G+S103E | nd / nd / nd | 0 of 9 |
| A40Q+T59K+Q95I | nd / nd / nd | 1 of 9 (3.96) |
| K36T+A57G+R99I | 3.03 / 2.99 / 4.70 | 2 of 9 (4.70) |
| V29R+L30P+P101V | 3.22 / 3.11 / nd | 3 of 9 (3.39) |
| S33M+L102Q+S103W | nd / nd / nd | 1 of 9 (3.33) |
| S62I | 0.58 / 0.79 / 0.71 | 2 of 9 (3.72) |
| E32S+S38W+S103V | nd / nd / nd | 0 of 9 |
| Y31V+A40V+P101L | nd / nd / nd | 1 of 9 (4.29) |
| V29T+Y97H+H98F | 3.22 / 2.94 / nd | 3 of 9 (3.42) |
| R34C+W56C+L102R | nd / nd / nd | 0 of 9 |
| S26I+E32H+N37Q | 5.86 / nd / 6.11 | 2 of 9 (4.66) |
| K24Q+A57H+L100M | 4.01 / 2.95 / 4.29 | 0 of 9 |
| S26F+N35P+R99F | nd / nd / nd | 1 of 9 (3.49) |
| K24N+R34W+S58Q | 2.30 / 1.85 / 2.21 | 3 of 9 (4.27) |
| A57S+R99N | 2.21 / 2.08 / 2.05 | 1 of 9 (4.18) |

A selection of 4 entries from above:

{"changes": "K36H+Q96N+L100W", "log10 Kd, replicates": "7.03 / nd / 4.85", "empty controls": "7 of 9 (5.11)"}
{"changes": "E32S+S38W+S103V", "log10 Kd, replicates": "nd / nd / nd", "empty controls": "0 of 9"}
{"changes": "S33M+L102Q+S103W", "log10 Kd, replicates": "nd / nd / nd", "empty controls": "1 of 9 (3.33)"}
{"changes": "V29R+L30P+P101V", "log10 Kd, replicates": "3.22 / 3.11 / nd", "empty controls": "3 of 9 (3.39)"}

Values reported by Engelhart et al. 2022, doi:10.1038/s41597-022-01779-4 (FLAb copy).